Assay outcomes: PubChem BioAssay, National Center for Advancing Translational Sciences (NCATS)
DT40 TDP1 CPT: DT40-hTDP1 cell growth loss with CPT | chicken DT40 Tdp1-/-;hTDP1 cells + 20 nM CPT, ATP luminescence, 48 h | 420,000 tested, 12% active | AID 686979 | Potency, µM (series often up to 46.2 µM), inactives show at the top dose activity change, negative = growth inhibition, actives largely listed as inhibitors; further: potency means the concentration at half of the fitted maximal effect; on the % scale 0 is the no-effect control and ±100 the full control effect; nearly all actives have a fitted effect of over 55% in size
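Chicken DT40 Tdp1-/- cells complemented with human TDP1, 400 cells/well, exposed to compounds plus 20 nM camptothecin for at least 48 h at 37 C; viability read as ATP content by CellTiter-Glo luminescence.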
uPA surface inh: blocks generation of uPA at the cell surface; cell surface uPA generation assay, qHTS; Potency, µM (titrated, usually from 38.3 µM), without a hit: top-dose activity change, negative = inhibition, hits mostly inhibitors; 330,000 tested, 0.31% active; AID 540303; active means well fitted inhibition curve with a large enough effect; inconclusive means small, poorly fitted or top-dose-only effect; inactive means no such curve, though single readings can be large or run the other way; tested in mouse RAW 264.7 cells; further: potency means the concentration at half of the fitted maximal effect; on the % scale 0 is the no-effect control and ±100 the full control effect; nearly all actives have a fitted effect of over 55% in size
TDP1 cell noCPT: qHTS for Inhibitors of human tyrosyl-DNA phosphodiesterase 1 (TDP1): qHTS in cells in absence of CPT; DT40 Tdp1-/- hTDP1 cells, no CPT, ATP luminescence, 48 h; Potency, µM (titrated, usually from 46.2 µM), without a hit: at the top dose activity change, negative = growth inhibition, actives largely listed as inhibitors; 420,000 tested, 15% active; AID 686978, 2013; further: potency means the concentration at half of the fitted maximal effect; on the % scale 0 is the no-effect control and ±100 the full control effect; nearly all actives have a fitted effect of over 55% in size
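Seeded 400 DT40-hTDP1 cells/well (vehicle DMSO, no 20 nM CPT); pinned compounds; ≥48 hr at 37 °C; CellTiter-Glo luminescence as viability measure.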
TDP1 block: TDP1 (human) enzyme inhibition | Q9NUW8 | recombinant TDP1, AlphaScreen DNA substrate cleavage | Potency, µM (titrated, usually from 130 µM), without a hit: at the highest dose activity change, negative = inhibition, hits mostly inhibitors | 350,000 tested, 0.28% active; further: potency means the concentration at half of the fitted maximal effect; on the % scale 0 is the no-effect control and ±100 the full control effect; nearly all actives have a fitted effect of over 40% in size
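AlphaScreen read-out: signal falls as enzyme removes the 3' tyrosine-FITC from a 5'-biotinylated DNA oligo (15 nM, 5 min, RT). Enzyme was E. coli-made recombinant Tdp1 at 1 nM, exposed to compound for 15 min beforehand; beads 10 ug/ml, 10 min.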
miR-21 reporter: raises the signal of a miR-21 reporter | Potency, µM (doses to about 38.3 µM), for inactives: top-dose reporter change, positive = more light | HeLa miR-21 FLuc reporter, luciferase, 48 h | AID 2288 | 340,000 tested, under 10 active; active = well fitted rising curve with a large enough effect; inconclusive = small, poorly fitted or top-dose-only effect; inactive = no such curve, though single readings can be large or run the other way;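 also: % of control where 0% means no effect; miR-21 action dims this reporter so a rising signal means less miR-21 action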
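HeLa cells endogenously expressing miR-21, stably carrying CMV-driven firefly luciferase with a downstream miR-21 binding site, 2000 cells/well. Titrations up to approximately 40 uM, 48 hours; luciferase luminescence read.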
The depositor's hits bear a star; ? = inconclusive; . = not tested or not shown; [ ] = another dose, or the depositor's remark. Compounds with a hit are over-represented: about 16% of the library has one in this group of screens. Unless noted, the call rests on the fitted dose curve; in most records, active means well fitted curve in the direction sought with a large enough effect; inconclusive means small, poorly fitted or top-dose-only effect, or another doubt; inactive means no such curve, though single readings can be large; an effect the other way counts as inactive or inconclusive.

(1) CC(NC(=O)[C@H](C)N1C(=O)N2CCc3c([nH]c4ccccc34)[C@@]2(C)C1=O)c1ccccc1 (some centres not stated)
(2) CC(C)[C@@H](C(=O)NC1CCCC1)N1C(=O)N2CCc3c([nH]c4ccccc34)[C@@]2(C)C1=O
(3) CC(=O)Nc1cccc(-n2c(=O)n(Cc3ccccc3)c(=O)c3[nH]cnc32)c1
(4) COC(=O)[C@]12CCCCC=C1N(Cc1ccc(Cl)cc1Cl)C(=O)[C@H](CC(=O)NCCC(C)C)C2
(5) CCCCNC(=O)C[C@@H]1C[C@@]2(C(=O)OC)CCCCC=C2N(Cc2ccc(Cl)cc2Cl)C1=O
(6) COC(=O)[C@]12CCCCC=C1N(Cc1ccco1)C(=O)[C@H](CC(=O)NCc1ccccc1)C2
(7) COC(=O)[C@]12CCCCC=C1N(Cc1ccc(Cl)cc1Cl)C(=O)[C@H](CC(=O)NCc1ccc(C)o1)C2
(8) COCc1cc(C)nc(OCC(=O)N/N=C/c2ccc(C)cc2)c1C#N

Compound | 1 | 2 | 3 | 4 | 5 | 6 | 7 | 8
DT40 TDP1 CPT | 16µM* | ? | -28% | ? | ? | -23% | ? | 12µM*
uPA surface inh | 10% | 12% | 0% | . | . | . | . | -23%
TDP1 cell noCPT | ? | ? | 5% | 21µM* | 16µM* | -23% | 16µM* | 9.2µM*
TDP1 block | . | . | . | . | . | . | . | 5%
miR-21 reporter | 8% | 15% | -8% | . | . | . | . | -4%

(9) COc1ccc(C2c3cc(OC)c(OC)cc3Cc3c4cc(OC)c(OC)cc4cc[n+]32)cc1OC (configuration not stated)
(10) CCN(C(=S)NC(=O)c1ccco1)c1cccc2ccccc12
(11) Cc1nc2ccccc2n1CSc1ccccc1
(12) CC(=O)N1CCc2cc(S(=O)(=O)CCC(=O)N3CCN(c4cccc(C)c4C)CC3)ccc21
(13) Cc1ccc(C)c(N2CCN(C(=O)CN(C)S(=O)(=O)c3ccc4c(c3)CCC(=O)N4)CC2)c1
(14) Cc1ccc(C)c(N2CCN(S(=O)(=O)c3ccc4c(c3)CCC(=O)N4)CC2)c1
(15) CC(=O)N1CCc2cc(S(=O)(=O)CCC(=O)N3CCN(c4cc(C)ccc4C)CC3)ccc21
(16) Nc1nc(N)c(Br)c(Nc2ccc(Cl)c(Cl)c2)n1

Compound | 9 | 10 | 11 | 12 | 13 | 14 | 15 | 16
DT40 TDP1 CPT | ? | ? | -29% | 16µM* | ? | . | ? | ?
uPA surface inh | . | -27% | -9% | . | 5% | . | -3% | 4%
TDP1 cell noCPT | ? | ? | ? | 15µM* | 16µM* | . | 21µM* | ?
TDP1 block | 7% | 3% | -2% | -2% | 0% | 2% | 2% | .
miR-21 reporter | . | . | -2% | 3% | 2% | -6% | 1% | .

(17) CCOc1cccc(C2c3c(oc4ccc(F)cc4c3=O)C(=O)N2c2cc(C)ccn2)c1 (configuration not stated)
(18) COc1ccc(C(=O)Nc2cc(-c3nc4ccccc4s3)ccc2OC)cc1
(19) COc1cc(OC)cc(C(=O)Nc2ccccc2-c2nc3ccccc3s2)c1
(20) O=C(Nc1ccc(OC(=O)c2ccccc2)c(-c2nc3ccccc3s2)c1)c1ccccc1
(21) COc1ccc(-c2nc3ccccc3s2)cc1NC(=O)c1cccc(F)c1
(22) COc1ccc(-c2nc3ccccc3s2)cc1NC(=O)c1ccccc1OC
(23) COc1ccc(-c2nc3ccccc3s2)cc1NC(=O)c1cc(OC)c(OC)c(OC)c1
(24) COc1ccc(C(=O)NCc2ccc(-c3nc4ccccc4s3)cc2)cc1

Compound | 17 | 18 | 19 | 20 | 21 | 22 | 23 | 24
DT40 TDP1 CPT | 16µM* | 3.3µM* | 10µM* | 18µM* | ? | 5.2µM* | ? | 1%
uPA surface inh | . | . | . | 0% | . | . | . | -1%
TDP1 cell noCPT | 23µM* | 5.2µM* | 5.8µM* | ? | ? | 21µM* | -25% | -18%
TDP1 block | 0% | -6% | -5%[12.3 µM] | 0% | -6% | 0% | 0% | -2%
miR-21 reporter | -12% | 0% | -1% | -5% | -17% | -48% | -55% | -43%

(25) COc1cccc(C(=O)NCc2ccc(-c3nc4ccccc4s3)cc2)c1
(26) CCOC(=O)N1CCN(c2ccc(C(=O)c3cccc(F)c3)cc2)CC1
(27) O=C(c1ccc(N2CCN(C(=O)c3ccccc3Br)CC2)cc1)c1cccc(F)c1
(28) O=C(c1ccc(N2CCN(C(=O)c3cccc(F)c3)CC2)cc1)c1cccc(F)c1
(29) CCOC(=O)N1CCN(c2ccc([N+](=O)[O-])cc2)CC1
(30) C/C(=C/c1ccccc1)C(=O)N1CCN(c2ccc(F)cc2)CC1
(31) O=C(c1ccccc1)N1CCN(C(=O)c2ccccc2Br)CC1
(32) O=C(c1ccccc1)c1ccc(C(=O)N2CCN(c3ccc(F)cc3)CC2)o1

Compound | 25 | 26 | 27 | 28 | 29 | 30 | 31 | 32
DT40 TDP1 CPT | 18µM* | 13µM* | 16µM* | 16µM* | ? | -6% | -12% | ?
uPA surface inh | -10% | -7% | -7% | -12% | 3% | 2% | 4% | -1%
TDP1 cell noCPT | 18µM* | 21µM* | 26µM* | ? | ? | ? | 6% | 12µM*
TDP1 block | 2% | -4% | 6% | 10% | 3% | . | 2% | 6%
miR-21 reporter | -12% | 9% | -2% | 12% | -4% | -3% | -2% | 1%

(33) Cc1cc(C(=O)NNC(=S)NC2CCCCC2)cs1
(34) Cc1nn(C(=O)c2cccnc2)c(C)c1C
(35) C#CCN(C[C@H]1[C@H](OC(=O)NCc2ccc(OC)c(OC)c2)[C@H](OC(=O)NCc2ccc(OC)c(OC)c2)C[C@H]2C(=O)N(c3ccccc3)C(=O)[C@@H]12)S(=O)(=O)c1ccc(C)cc1
(36) C#CCN(C[C@H]1[C@H](OC(=O)NCc2ccccc2)[C@H](OC(=O)NCc2ccccc2)C[C@@H](C(=O)OC)[C@H]1C(=O)OC)S(=O)(=O)c1ccc(C)cc1
(37) C#CCN(C[C@H]1[C@H](OC(=O)Nc2c(C)noc2C)[C@H](OC(=O)Nc2c(C)noc2C)C[C@@H](C(=O)OC)[C@H]1C(=O)OC)S(=O)(=O)c1ccc(C)cc1
(38) C#CCN(C[C@H]1[C@H](OC(=O)NCCCCCC)[C@H](OC(=O)NCCCCCC)C[C@@H](C(=O)OC)[C@H]1C(=O)OC)S(=O)(=O)c1ccc(C)cc1
(39) Cc1ccc(Cn2c(C3CCCN3c3nc(C)cs3)nc3cc(C(F)(F)F)ccc32)cc1 (configuration not stated)
(40) C=CCOc1ccccc1CNCc1ccc(F)cc1
(41) COc1ccc(C(=O)Oc2c(Sc3ccc(C)cc3)c(C)nn2C(C)(C)C)cc1OC
(42) Cc1nn(C(C)(C)C)c(OC(=O)c2cccc(F)c2)c1Sc1ccccc1
(43) COc1ccc(C(=O)Oc2c(Sc3ccc(Cl)cc3)c(C)nn2C(C)(C)C)cc1OC

Compound | 33 | 34 | 35 | 36 | 37 | 38 | 39 | 40 | 41 | 42 | 43
DT40 TDP1 CPT | ? | -10% | -22% | -107% | 21µM* | 4.1µM* | ? | -23% | ? | ? | 23µM*
uPA surface inh | -1% | -1% | . | . | . | . | -2% | -3% | . | . | .
TDP1 cell noCPT | ? | -25% | ? | -105% | 15µM* | 5.8µM* | 21µM* | -26% | 21µM* | ? | ?
TDP1 block | 5% | 4% | . | . | . | . | . | 0% | 3% | 0% | 3%
miR-21 reporter | -35% | -2% | . | . | . | . | 16% | -3% | ? | 8% | 30%

Excerpt, compounds 35–38
(35) C#CCN(C[C@H]1[C@H](OC(=O)NCc2ccc(OC)c(OC)c2)[C@H](OC(=O)NCc2ccc(OC)c(OC)c2)C[C@H]2C(=O)N(c3ccccc3)C(=O)[C@@H]12)S(=O)(=O)c1ccc(C)cc1
(36) C#CCN(C[C@H]1[C@H](OC(=O)NCc2ccccc2)[C@H](OC(=O)NCc2ccccc2)C[C@@H](C(=O)OC)[C@H]1C(=O)OC)S(=O)(=O)c1ccc(C)cc1
(37) C#CCN(C[C@H]1[C@H](OC(=O)Nc2c(C)noc2C)[C@H](OC(=O)Nc2c(C)noc2C)C[C@@H](C(=O)OC)[C@H]1C(=O)OC)S(=O)(=O)c1ccc(C)cc1
(38) C#CCN(C[C@H]1[C@H](OC(=O)NCCCCCC)[C@H](OC(=O)NCCCCCC)C[C@@H](C(=O)OC)[C@H]1C(=O)OC)S(=O)(=O)c1ccc(C)cc1

Compound | 35 | 36 | 37 | 38
DT40 TDP1 CPT | -22% | -107% | 21µM* | 4.1µM*
uPA surface inh | . | . | . | .
TDP1 cell noCPT | ? | -105% | 15µM* | 5.8µM*
TDP1 block | . | . | . | .
miR-21 reporter | . | . | . | .
